# Laboratory results reported in PubChem BioAssay AID690 (Sanford-Burnham Center for Chemical Genomics, 2007).
# By UniProt entry, the sequences of proteins in these tests, tags left out.
# UniProt P05187, whole entry: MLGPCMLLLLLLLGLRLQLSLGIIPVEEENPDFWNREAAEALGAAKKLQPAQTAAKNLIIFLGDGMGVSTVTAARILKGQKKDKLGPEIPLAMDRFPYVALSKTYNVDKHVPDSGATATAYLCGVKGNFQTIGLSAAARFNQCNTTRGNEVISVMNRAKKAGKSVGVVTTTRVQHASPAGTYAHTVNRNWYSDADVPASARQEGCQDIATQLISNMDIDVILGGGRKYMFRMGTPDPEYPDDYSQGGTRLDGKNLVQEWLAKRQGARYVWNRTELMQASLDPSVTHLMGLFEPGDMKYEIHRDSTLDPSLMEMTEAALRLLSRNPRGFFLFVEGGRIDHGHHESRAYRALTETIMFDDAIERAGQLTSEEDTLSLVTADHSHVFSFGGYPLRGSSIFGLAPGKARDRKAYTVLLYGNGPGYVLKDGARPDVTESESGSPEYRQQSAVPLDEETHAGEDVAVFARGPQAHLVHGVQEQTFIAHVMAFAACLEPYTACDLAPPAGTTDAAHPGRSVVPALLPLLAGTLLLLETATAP
# This is a selection; strong and weak results do not stand in their true shares. Entries with a potency or affinity are not part of this list. Some results for these compounds are left out of this collection, so the calls shown say nothing about other tests. Calls of active or inactive are those of the source. No rule for the calls is given here.
# Target: Alkaline phosphatase, placental type (Homo sapiens) (UniProt P05187)
# Experiment: PLAP enzyme inhibitors, biochemical, luminescence, HTS (AID 690)
# Conditions: purified PLAP, luminescent substrate; at 20 µM; stronger effect = higher value
row,SMILES,inhibition
1,CN(C)c1cccc(C(=O)NCC2(N(C)C)CCCCC2)c1,inactive: 12.6%
2,O=C(OC1CN2CCC1CC2)C(CO)(c1ccccc1)c1ccccc1 (stereo not drawn),inactive: -16.4%
3,CC(C)N1C(=O)CC2(CCN(CCOC(=O)C(O)(c3ccccc3)c3ccccc3)CC2)C1=O,inactive: -36.5%
